# Source: ChEMBL document CHEMBL1133213, “Synthesis, molecular modeling and preliminary biological evaluation of 1-amino-3-phosphono-3-cyclopentene-1-carboxylic acid and 1-amino-3-phosphono-2-cyclopentene-1-carboxylic acid, two novel agonists of metabotropic glutamate receptors of group III” (Bioorg Med Chem Lett, 2000)
# Protein sequences, listed by entry. Tags and fused reporters are not part of them. Lines headed by an entry give the natural chain unless they say otherwise; changes in a name come on top.
# UniProt Q14833: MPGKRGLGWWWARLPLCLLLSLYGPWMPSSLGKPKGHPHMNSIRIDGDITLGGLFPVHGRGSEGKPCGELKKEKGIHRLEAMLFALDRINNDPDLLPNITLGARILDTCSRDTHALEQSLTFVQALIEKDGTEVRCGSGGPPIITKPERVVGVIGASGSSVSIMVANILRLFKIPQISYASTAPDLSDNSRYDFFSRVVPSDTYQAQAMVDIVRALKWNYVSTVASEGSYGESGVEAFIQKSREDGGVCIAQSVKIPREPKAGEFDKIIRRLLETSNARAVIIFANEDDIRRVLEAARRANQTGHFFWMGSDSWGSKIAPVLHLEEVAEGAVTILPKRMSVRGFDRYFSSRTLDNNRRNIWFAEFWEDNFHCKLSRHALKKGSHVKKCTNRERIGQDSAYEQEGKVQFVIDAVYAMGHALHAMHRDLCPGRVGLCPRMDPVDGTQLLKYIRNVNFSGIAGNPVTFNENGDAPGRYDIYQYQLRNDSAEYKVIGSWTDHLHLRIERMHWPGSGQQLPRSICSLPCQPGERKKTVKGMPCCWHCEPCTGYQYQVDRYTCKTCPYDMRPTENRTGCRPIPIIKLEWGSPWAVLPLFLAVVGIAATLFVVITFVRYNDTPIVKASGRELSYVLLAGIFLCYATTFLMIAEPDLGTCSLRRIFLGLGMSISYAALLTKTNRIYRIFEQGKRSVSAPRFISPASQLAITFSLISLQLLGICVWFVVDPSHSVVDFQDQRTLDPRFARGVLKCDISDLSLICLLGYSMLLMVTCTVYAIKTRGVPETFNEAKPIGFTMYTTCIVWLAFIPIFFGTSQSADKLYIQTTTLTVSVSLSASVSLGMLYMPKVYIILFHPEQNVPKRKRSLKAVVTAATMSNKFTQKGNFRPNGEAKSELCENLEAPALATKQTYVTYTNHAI
# Biological target: Metabotropic glutamate receptor 4 (Homo sapiens, UniProt Q14833)
# Test: Agonistic activity at Metabotropic glutamate receptor 4 expressed in mammalian cells by GTPgammaS binding assay
# Format: cell-based
# Method in brief: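 [35S]-GTPγS binding to membranes prepared from CHO cells expressing human mGlu4a. Stimulation is normalised to that given by 1 mM L-Glu. Points are mean ± SEM of three determinations from one experiment.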
smiles,measurement,value
N[C@@]1(C(=O)O)CC[C@@H](C(=O)O)C1,EC50,39 µM
